Reference: patent US12606543B2, “Indole derivatives as serotonergic agents useful for the treatment of disorders related thereto” (priority 2023, dated 2026)

Sequences of proteins named here, by UniProt entry; tags and fusion partners are left off.
UniProt P08908, whole entry: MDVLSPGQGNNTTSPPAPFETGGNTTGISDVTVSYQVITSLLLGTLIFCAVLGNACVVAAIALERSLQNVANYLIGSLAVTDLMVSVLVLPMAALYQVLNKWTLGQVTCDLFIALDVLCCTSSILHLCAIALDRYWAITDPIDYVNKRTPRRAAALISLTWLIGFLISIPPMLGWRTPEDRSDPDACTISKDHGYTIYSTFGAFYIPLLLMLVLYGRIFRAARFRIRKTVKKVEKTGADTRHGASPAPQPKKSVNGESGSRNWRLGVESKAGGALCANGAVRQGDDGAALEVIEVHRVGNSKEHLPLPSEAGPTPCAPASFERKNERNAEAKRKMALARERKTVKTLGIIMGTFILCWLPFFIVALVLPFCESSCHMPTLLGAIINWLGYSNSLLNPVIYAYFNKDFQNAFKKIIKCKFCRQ

Assays:
[1] = molecular target: human 5-hydroxytryptamine receptor 1A (5-HT1A) (Homo sapiens, UniProt P08908); test: Human 5-HT1A radioligand binding assay ([3H]-8-Hydroxy-DPAT); details: [3H]-8-Hydroxy-DPAT displacement, cell membrane, 27° C., 90 min; read-out: h5-HT1A, IC50
Experimental: The objective of this study was to evaluate the binding properties of test compounds on 5-hydroxytryptamine receptor 1A (5-HT1A).
1. The assay buffer was prepared following Table 25 below.
2. 8 doses of reference and test compounds were prepared starting from 10 mM stock solution as required by 5-fold serial dilutions with 100% (v/v) DMSO.
3. UniFilter-96 GF/B plate was pretreated: • i. 50 μl/well of 0.5% (v/v) PEI was added to UniFilter-96 GF/B plates. The plates were sealed and incubated at 4° C. for 3 hrs. • ii. After incubation, the plates were washed 3 times with ice-cold wash buffer (50 mM Tris, pH7.4).
4. Assay plate was prepared: • i. Cell membrane was diluted with assay buffer and 100 μl/well was added to 96 round well plates to reach a concentration of 20 μg/well. • ii. 8 concentrations of reference or test compounds were prepared and 50 μl/well was added to 96 round deep well plates. • iii. […]
10. The plate was read by using a Microbeta^2 microplate counter.
1. For reference and test compounds, the results were expressed as % Inhibition, using the normalization equation: N=100−100×(U−C2)/(C1−C2), where U is the unknown value, C1 is the average of high controls, and C2 is the average of low controls.
2. The IC50 was determined by fitting percentage of inhibition as a […] of compound concentrations with Hill equation using XLfit. […]

human 5-HT1A receptor = molecular target: T1, human 5-HT1A receptor (Homo sapiens, UniProt P08908); test: Human 5-HT1A cAMP assay; type: cell-based
T1 construct: expressed in transfected cells; host or cells: CHO-K1
Experimental: Compound potency (EC50) and efficacy (Max response) against the human 5-HT1A receptor in stably transfected CHO-K1 cells were determined in a GPCR cell-based CAMP assay.
(§1) Cells were seeded in a total volume of 20 μL into white walled, 384-well microplates and incubated at 37° C. overnight before analysis. Prior to testing, cell plating media was exchanged with 10 μL of Assay buffer (HBSS+10 mM HEPES). Briefly, intermediate dilution of sample stocks were performed to generate 4× sample in assay buffer. 5 μL of 4× samples+5 μL of 4× forskolin were added to cells and incubated at 37° C. for 30 minutes (mins). The final assay vehicle concentration was 1%.
as §1, with “sample stocks was performed to” for “sample stocks were performed to”, “generate 4× samples in assay” for “generate 4× sample in assay”, “4× forskolin was added to” for “4× forskolin were added to”, “for 30 mins. The final” for “for 30 minutes (mins). The final”

Structure (SMILES) | IC50 [1] | EC50 (human 5-HT1A receptor; cAMP assay with forskolin, stably transfected CHO-K1 cells, 30 min) | Emax (% of serotonin) (human 5-HT1A receptor; cAMP assay, CHO-K1 cells, relative to maximum response of serotonin)
COc1ccc2[nH]cc(CCN(C)C)c2c1 [5-MeO-DMT] | 6 nM | – | –
COc1ccc2[nH]cc(CCN(C)C)c2c1 [5MeO-DMT] | – | 12.7 nM | 99.98 % of serotonin
